Only a part is listed here, and it is no random draw. Active and inactive are the calls of the source.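 Rule for the calls: active = growth inhibition above 90%, meaning viable cell count cut by more than 90% versus vehicle controls; inactive = growth inhibition below 90%.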

The nature of the assay: HT29 colon tumor cell growth inhibition, primary screen, imaging, high content imaging, 72 h, CellTiter-Glo (AID 772). To be noted: HCS imaging cell count, at 10 µM, stronger effect = higher value. A general note: ATP-based viability assays read luminescence as a measure of living cells.
In the case of `CCN(CC)CC(O)COC(=O)C(O)(c1ccccc1)C1CCCCC1` (stereo unspecified), the growth inhibition is inactive: 7.81%.

The record behind these values is PubChem BioAssay AID772 (SRMLSC, 2007).
